Earlier results in patent US20090325863A1, “Somatostatin analogs and IGF-I inhibition for breast cancer prevention” (priority 2008, published 2009).
“Also recorded” adds a separate entry of the source.

The chains behind the UniProt entries cited, without tags or fusion partners.
UniProt P30874, whole entry, species assumed: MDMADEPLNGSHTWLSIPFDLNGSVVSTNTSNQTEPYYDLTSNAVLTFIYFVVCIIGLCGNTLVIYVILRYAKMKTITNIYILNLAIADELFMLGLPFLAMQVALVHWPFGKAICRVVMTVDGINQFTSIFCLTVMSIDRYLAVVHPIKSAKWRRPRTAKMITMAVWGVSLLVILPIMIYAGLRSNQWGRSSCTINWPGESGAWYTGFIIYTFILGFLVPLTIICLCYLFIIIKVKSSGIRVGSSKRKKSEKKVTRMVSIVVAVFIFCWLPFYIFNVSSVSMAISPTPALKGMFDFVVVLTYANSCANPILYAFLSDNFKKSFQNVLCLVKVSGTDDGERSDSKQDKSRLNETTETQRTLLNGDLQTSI
UniProt P31391, whole entry, species assumed: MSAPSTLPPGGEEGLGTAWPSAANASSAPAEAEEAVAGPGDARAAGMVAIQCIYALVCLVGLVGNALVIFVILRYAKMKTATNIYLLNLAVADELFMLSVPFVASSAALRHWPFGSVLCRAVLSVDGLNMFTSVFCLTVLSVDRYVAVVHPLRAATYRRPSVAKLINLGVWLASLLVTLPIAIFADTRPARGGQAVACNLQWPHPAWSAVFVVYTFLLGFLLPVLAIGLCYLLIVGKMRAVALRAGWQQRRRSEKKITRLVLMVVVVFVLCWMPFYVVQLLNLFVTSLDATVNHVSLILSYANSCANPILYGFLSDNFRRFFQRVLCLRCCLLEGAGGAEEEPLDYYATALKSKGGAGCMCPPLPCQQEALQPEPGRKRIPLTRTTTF
UniProt P32745, whole entry, species assumed: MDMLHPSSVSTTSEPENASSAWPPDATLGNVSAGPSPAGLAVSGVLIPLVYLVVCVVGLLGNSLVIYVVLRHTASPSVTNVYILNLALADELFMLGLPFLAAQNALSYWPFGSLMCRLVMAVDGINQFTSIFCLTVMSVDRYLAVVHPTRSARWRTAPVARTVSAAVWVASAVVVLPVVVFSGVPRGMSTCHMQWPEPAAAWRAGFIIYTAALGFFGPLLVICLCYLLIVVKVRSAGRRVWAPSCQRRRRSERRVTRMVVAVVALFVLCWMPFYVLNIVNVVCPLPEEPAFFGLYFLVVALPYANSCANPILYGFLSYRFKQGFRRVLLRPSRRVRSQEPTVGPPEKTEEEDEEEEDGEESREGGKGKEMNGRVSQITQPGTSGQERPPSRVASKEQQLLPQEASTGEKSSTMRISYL
UniProt P30872, whole entry, species assumed: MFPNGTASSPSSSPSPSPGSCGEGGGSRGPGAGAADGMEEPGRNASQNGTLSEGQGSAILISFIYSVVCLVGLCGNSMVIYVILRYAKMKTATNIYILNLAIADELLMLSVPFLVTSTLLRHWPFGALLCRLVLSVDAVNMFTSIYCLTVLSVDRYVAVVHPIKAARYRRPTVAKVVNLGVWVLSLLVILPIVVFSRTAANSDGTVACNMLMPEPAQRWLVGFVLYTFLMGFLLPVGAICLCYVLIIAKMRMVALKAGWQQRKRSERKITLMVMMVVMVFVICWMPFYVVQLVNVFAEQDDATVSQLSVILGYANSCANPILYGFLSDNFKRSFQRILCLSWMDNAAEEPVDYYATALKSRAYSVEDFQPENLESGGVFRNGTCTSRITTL
UniProt P35346, whole entry, species assumed: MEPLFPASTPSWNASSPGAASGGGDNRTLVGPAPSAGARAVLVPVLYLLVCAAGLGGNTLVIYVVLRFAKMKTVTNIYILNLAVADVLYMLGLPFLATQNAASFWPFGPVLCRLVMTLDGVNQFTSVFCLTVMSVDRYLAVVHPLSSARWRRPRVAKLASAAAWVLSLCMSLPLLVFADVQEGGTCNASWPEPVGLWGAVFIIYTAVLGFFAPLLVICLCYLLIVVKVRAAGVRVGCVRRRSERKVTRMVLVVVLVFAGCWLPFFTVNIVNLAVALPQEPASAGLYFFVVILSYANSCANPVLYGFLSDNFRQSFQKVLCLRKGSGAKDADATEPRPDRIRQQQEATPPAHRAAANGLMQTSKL

Legend:
Conditions in all cases: cited from earlier work
[1] = biological target: SSTR-2 (Homo sapiens, UniProt P30874)
[2] = biological target: SSTR-4 (Homo sapiens, UniProt P31391)
[3] = biological target: SSTR-3 (Homo sapiens, UniProt P32745)
[4] = biological target: SSTR-1 (Homo sapiens, UniProt P30872)
[5] = biological target: SSTR-5 (Homo sapiens, UniProt P35346)

Substance | affinity for SSTR-2 [1] | affinity for SSTR-4 [2] | affinity for SSTR-3 [3] | affinity for SSTR-1 [4] | affinity for SSTR-5 [5]
vapreotide | high affinity | moderate affinity | relatively low affinity; also recorded: moderate affinity | low affinity | relatively low affinity; also recorded: moderate affinity
Octreotide | high affinity | moderate affinity | relatively low affinity; also recorded: moderate affinity | low affinity | relatively low affinity; also recorded: moderate affinity
